# Target: human FcRn (heterodimer of alpha chain and beta2-microglobulin) (human) (UniProt P55899)
# Experiment: Biacore (SPR), column 'hFcRn Affinity (uM)'; antibody captured on anti-hFab CM5 chip, hFcRn as analyte, PBS pH 6.0, 1:1 Langmuir fit
substance,measurement,value
adalimumab native IgG1 (XENP6755) (antibody),Kd,1600 nM
